Results: patent EP0000322A1, “Compounds having an anti-depressive or tranquilizing activity, pharmaceutical compositions containing them, and processes and intermediates for their preparation” (priority 1977, dated 1979)

System: neuronal uptake of 5-hydroxytryptamine
Test: Inhibition of the uptake of 14C-5-HT in brain slices after in vivo (i.p.) administration
Parameters: species or system mice
Conditions: Mus musculus, ip, 0.5 h, read-out: Inhibition of the uptake in vivo i.p. ED50 5-HT, i.p. half an hour before the animals were killed, midbrain slices
Description: The test method described in Europ. J. Pharmacol. 17, 107, 1972. This method involves the measurement of the decrease in the uptake of ^14C-5-hydroxytryptamine (^14C-5-HT) and ^3H- -noradrenaline (^3H-NA) in brain slices from mice after in vivo and in vitro administration of the test substance.
The test substances were administered intraperitoneally half an hour before the animals were killed. The midbrain was taken out, sliced and incubated in a mixture consisting of 0.2 nmole of ^14C-5-HT, 0.2 nmole of ^3H-NA and 11 µmole of glucose in 2 ml of Krebs Henseleit-buffer, pH 7.4 per 100 mg of brain slices. The incubation time was 5 minutes with 5 minutes of preincubation before the labelled amines were added. The slices were dissolved in Soluene and the amounts of radioactive amines taken u^p were determined by liquid scintillation. The doses producing 50 per cent decrease of the active uptake (ED50) of ^14C-5-HT and ^3H-NA were determined graphically from dose response curves. Active uptake is defined as that part of the radioactive uptake which is inhibited by a high concentration of cocaine.

## CN(C)CCCN1c2ccccc2CCc2ccc(Cl)cc21 [Chloroimipramine, reference compound]
  ED50: 20 µmol/kg
